One data set has as its system Escherichia coli. The data set is described as follows: Toxicity against Escherichia coli ATCC 25922 measured after 18 to 24 hrs. The class given is ADME, organism-based. The note with it: in vivo.
In the next data set the test system is Staphylococcus aureus. The experiment in a line: Toxicity against Staphylococcus aureus ATCC 25923 measured after 18 to 24 hrs. It is filed as organism-based. Conditions: in vivo.
Another data set has as its system HeLa. The data set is described as follows: Cytotoxicity against human HeLa cells assessed as reduction in cell viability up to 100 ug/ml after 24 hrs by MTT assay. The class given is cell-based.

SMILES strings stand for the structures. Bounds are passed on as bounds.

As to `[N-]=[N+]=NC[C@H]1O[C@H](O[C@H]2[C@H](O)[C@@H](O[C@@H]3O[C@H](CO)[C@@H](O)[C@H](N=[N+]=[N-])[C@H]3O)[C@H](N=[N+]=[N-])C[C@@H]2N=[N+]=[N-])[C@H](O)[C@@H](O)[C@@H]1O`, the MIC against Escherichia coli and with Staphylococcus aureus was ≥ 128 µg/mL each time. Moreover, the Activity entry in the data set on HeLa is “Non-Toxic”.
